Assay results taken from patent EP1016405A2, “Arylating medicaments” (Radopath Pharmaceuticals International Limited, priority 1993, dated 1994).

Legend:
[1] = tested on: MAC15A (murine adenocarcinoma colon); test: Anti-tumour activity against MAC15A ascites tumour, survival T/C%; assay type: in vivo, mice; conditions: median survival, test vs solvent control; 100 mg kg^-1 ip per day; schedule days 1,2,3
uninfected H9 cells = conditions: read-out: CC50 (Toxicity), Table 11.2, section Against chronically infected cells, unit inferred
uninfected cells = test: Toxicity Assay, 14C protein hydrolysate uptake, 72 hours; conditions: Table 10; 50% inhibition of 14C protein hydrolysate uptake

Compound | T/C% [1] | CC50 (uninfected H9 cells; Average) | CC50 (uninfected H9 cells; single assays) | CD50 (uninfected cells)
O=[N+]([O-])c1cc([N+](=O)[O-])c(Cl)c([N+](=O)[O-])c1 | 113% | 9.5 µM | 7 µM and 12 µM | 
O=[N+]([O-])c1cc([N+](=O)[O-])c(O)c([N+](=O)[O-])c1 | 300% |  |  | 95µm

Values joined by “and” are separate entries in the source; they are usually repeats but may differ in a detail not shown here. Identical values can stand only once. Like-named read-outs stand apart in the source and are kept apart here. Some compounds may have been tested in ways that are not shown here.
